What was measured:
[1] = tested on: hexobarbital oxidase; assay: in vivo hexobarbital oxidase activity: hexobarbital sleeping time in rats (enzyme induction); design: species or system male Wistar rats
Protocol: The enzyme-inducing effects of the new compounds were examined under in vivo conditions by determining the hexobarbital oxidase activity. The active agents of the formula (I) were administered to male Wistar rats weighing 50 to 60 g. in oral dosages of 40 mg./kg. The effect appears 24 hours after the administration of the enzyme-inducing substance. At that time the inactivation rate of hexobarbital was determined by administering intravenously 40 mg./kg. of hexobarbital sodium into the animals and measuring the time elapsed between the administration and the reappearance of the righting reflex. The period of sleep observed for the animals treated with the new compounds was compared to that observed in the control group (the animals belonging to the control group were treated with carrier substance only).
24 Hours after the administration of the enzyme-inducing compounds the in vivo inactivation of hexobarbital accelerates, which is evidenced by the shortening of the period of sleep. The results were expressed as percentage differences with respect to the controls. On the basis of the preliminary experiments a difference greater than 25% was regarded to be biologically significant.

[2] = tested on: hexobarbital; assay: biological half life-time of hexobarbital (UV spectrophotometry of plasma); details: rats

Question: CN1C(=O)CN(N=Cc2ccccc2)C(c2ccccc2)c2cc(Cl)ccc21 (centres unmarked) [Example 5, 1-Methyl-4-benzalamino-5-phenyl-7-chloro-1,3,4,5-tetrahydro-2H-1,4-benzodiazepine-2-one] was tested. Which “activity rank among the new compounds (in words)” value [1] did it give?
Answer: Its value is “the most active representative of the new compounds”.

Question: What about the “effect on half life-time of hexobarbital (in words)” value [2] of the same molecule?
Answer: Its value is “effectively decreases the half life-time of hexobarbital in rats”.

Source: US4021421A, “Benzodiazepine derivatives” (Richter Gedeon Vegyeszeti Gyar Rt., priority 1974, dated 1977)
